Apparent affinities of Ab-14 variants for a coronavirus HR2 peptide

From the AlphaSeq antibody data of Li et al. 2023 (doi:10.1038/s41467-023-39022-2), copy in the FLAb collection.

Target peptide (SARS-CoV-2 spike, HR2 region): PDVDLGDISGINAS

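The parent was found by panning a naive human phage display library on the peptide. Designed CDR sequences, proposed from the first random library and measured here. Group labels follow the data file (Ctrl: baseline library sampled from a position-specific scoring matrix, with some repeated check sequences; Rand: our label for a block that the file lists under HC and that is probably the random mutants of the ten best first-round binders; En: ensemble of fine-tuned language models; GP: Gaussian process model; GPLM: also part of the Gaussian process libraries; HC: hill climbing; Gen: genetic algorithm; Gibbs: Gibbs sampling; a sequence that several methods proposed may carry one label only). In AlphaSeq, yeast of one mating type display the scFv and yeast of the other type display the target. After mating in shaken culture at 30 °C for 16 h, diploids were selected and their barcode pairs sequenced. Each replicate has its own calibration line, from reference interactions of the BCL2 family. Mating was done six times.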

Each scFv is VH, the linker GGGGSGGGGSGGGGS, VL, as in the parent Ab-14, and differs from it in the CDRs of the heavy chain only.
VH: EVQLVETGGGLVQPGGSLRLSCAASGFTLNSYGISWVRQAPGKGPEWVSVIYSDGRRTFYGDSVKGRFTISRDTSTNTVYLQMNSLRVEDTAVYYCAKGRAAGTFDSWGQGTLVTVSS
VL: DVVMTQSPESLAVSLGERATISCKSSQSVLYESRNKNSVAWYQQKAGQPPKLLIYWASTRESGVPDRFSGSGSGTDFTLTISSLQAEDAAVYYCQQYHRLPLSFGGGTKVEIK

The parent's heavy chain CDRs are GFTLNSYGIS, VIYSDGRRTFYGDSVK, GRAAGTFDS; each variant's own CDRs replace them letter for letter.
Scale: log10 of Kd in nM, estimated from mating counts; low values are strong binders.
The mean shown is taken over the replicates in which the pair was detected.
"nd" marks a missing value. The strain was present, yet no cells mated with the target were sequenced in any replicate, which points to weak or no binding.
The list is sorted by this average, lowest first, undetected variants last.
The authors averaged sequences with at least three values out of six and counted those with two or fewer as poor binders.

CDR-H1 | CDR-H2 | CDR-H3 | group | log10 Kd (nM), mean | replicates with signal
GFDLNEYGIS | VIYADGRRTAYADSVK | GQVAGTFDI | En_Gen | -0.88 | 6/6
GFDLNEYGIS | VIYADGHRTFYSDSVK | GQLAGTFDA | En_HC | -0.73 | 6/6
GFDLNEYGIS | VIYADGQRTFYVDSVK | GQVAGTFNV | En_HC | -0.65 | 6/6
GFDINEYGIS | VIYADGRRTFYADSVK | GQTAGTFDT | En_HC | -0.63 | 6/6
GFDLNEYGIS | VIYADGRRTAYIDSVK | GNTAGTFDQ | En_HC | -0.62 | 6/6
GFDLEEYGIS | VIYADGRRTAYSDSVK | GEAAGTFDS | En_HC | -0.49 | 6/6
GFDLNEYGIS | VIYADGVRTAYADDVK | GNVAGTFDM | En_Gen | -0.49 | 6/6
GFDLNEYGIS | VIYADGQRTAYADNVK | GNVAGTFDI | En_Gen | -0.46 | 6/6
GFDLNEYGIS | VIYADGRRTFYTDDVK | GQNAGTFDS | En_HC | -0.45 | 6/6
GFSLNSYGIS | VIYSDGRRTAYGDSVK | GHAAGTFDS | GPLM_Gibbs | -0.43 | 6/6
GFDLNEYGIS | VIYADGMRTAYSDKVK | GNVAGTFDL | En_Gen | -0.43 | 6/6
GFDLDEYGIS | VIYADGRRTFYADSVK | GNNAGTFDV | En_Gen | -0.37 | 6/6
GFDLNEYGIS | VIYADGRRTFYTDSVK | GETAGTFDS | En_HC | -0.33 | 6/6
GFDLDEYGIS | VIYADGMRQAYADSVK | GENAGTFDV | En_Gen | -0.32 | 6/6
GFDLNEYGIS | VIYADGKRTAYADDVK | GNQAGTFDM | En_Gen | -0.27 | 6/6
GFDLNEYGIS | VIYADGVRTFYADSVK | GNVAGTFDQ | En_Gen | -0.25 | 6/6
GFALNSYGIS | VIYADGRRTFYGDSVK | GRAAGTFDS | Ctrl | -0.20 | 6/6
GFSLNEYGIS | VIYSDGRRTFYSDSVK | GKAAGTFDS | GPLM_Gen | -0.17 | 6/6
GFSLNSYGIS | VIYSDGRRTFYSDSVK | GQTAGTFDT | GP_Gibbs | -0.08 | 6/6
GFDLDEYGIS | VIYADGRRTFYADSVK | GETAGTFDI | En_HC | -0.06 | 6/6
GFDLDEYGIS | VIYADGMRTAYADKVK | GTNAGTFDV | En_Gen | -0.01 | 6/6
GFFLDEYGIS | VIYADGIRTAYKDKVK | GDDILLGWF | En_Gibbs | 0.01 | 6/6
GFDLEEYGIS | VIYADGKRTAYADSVK | GNEAGTFDV | En_Gen | 0.04 | 6/6
GFGLGEYGIS | VIYADGMRAAYVTSVK | GSIAGTFFT | En_Gibbs | 0.07 | 5/6
GFDLNSYGIS | VIYSDGRRTAYQDSVK | GRAAGTFDS | GP_Gen | 0.14 | 6/6
GFTLKSYGIS | VIYADGRRTFYGDSVK | GRVAGTFDS | GP_Gen | 0.15 | 4/6
GFTLNEYGIS | VIYSDGQRTFYGDSVK | GRAAGTFDS | Ctrl+GPLM_HC | 0.19 | 12/12
GFTLNSYGIS | VIYADGRRTFYGDRVK | GEAAGTFDM | GP_Gibbs | 0.21 | 6/6
GFSLNSYGIS | VIYSDGRRTFYADSVK | GVAAGTFDS | GPLM_Gen | 0.32 | 6/6
GFNLNSYGIS | VIYSDGRRTFYSDSVK | GREAGTFDS | GP_Gen | 0.34 | 6/6
GFDLNRYGIS | VIYSDGRRTFYGDSVK | GQTAGTFDS | GP_Gibbs | 0.39 | 6/6
GFELNMYGIS | VIYSDGRRTFYHDSVK | GRTAGTFDS | GP_Gen | 0.40 | 6/6
HFDLNSYGIS | VIYSDGRRTAYQDSVK | GRAAGTFDS | GP_Gibbs | 0.41 | 6/6
GFSLNSYGIS | VIYSDGRRTFYVDSVK | GNTAGTFDS | GPLM_Gen | 0.42 | 6/6
GFELNEYGIS | VIYSDGRRTEYIDSVK | GRAAGTFDS | GP_HC | 0.45 | 6/6
GFTLNEFGIS | VIYSDGRRTFYTDSVK | GRQAGTFDS | GP_HC | 0.75 | 6/6
GFTLNEYGIS | VIYSDGRRTFYTDSVK | GEGAGTFDS | GPLM_HC | 0.94 | 2/6
GFWLNDYGIS | VIYSDGRRTHYIDSVK | GRAAGTFDS | GP_HC | 1.00 | 5/6
GFSLNSYGIS | VIYSDGRRTFYTDRVK | GEAAGTFDS | GP_Gen | 1.01 | 6/6
GFRLNEYGIS | VIYSDGRRTFYGDSVK | GQAAGTFDQ | GP_HC | 1.02 | 6/6
GFTLNDYGIS | VIYSDGRRTFYGDSVK | GRWAGTFIS | GPLM_HC | 1.05 | 6/6
GFTLNEYGIS | VIYSDGRRTFYMDSVK | GRFAGTFDS | GPLM_HC | 1.08 | 6/6
GFSLNNYGIS | VIYSDGRRTFYGDQVK | GQTAGTFDS | GP_Gen | 1.13 | 6/6
GFHLNSYGIS | VIYSDGRRTFYIDDVK | GQAAGTFDH | Ctrl | 1.22 | 5/6
GFTLESYGIS | VIYSDGRRTFYGDSVK | GKVAGTFDS | GP_Gen | 1.22 | 6/6
GFTLDSYGIS | VIYSDGRRTFYTDSVK | GRAAGTFDS | GPLM_Gen | 1.25 | 4/6
GFELNDYGIS | VIYSDGRRTWYGDSVK | GRAAGTFDS | GP_HC | 1.25 | 6/6
GFSLNMYGIS | VIYSDGRREFYSDSVK | GRAPGTFDS | Ctrl | 1.34 | 4/6
GFTLNEYGIS | VIYSDGRRTFYGDAVK | GRAAGFFDS | Ctrl | 1.38 | 5/6
GFQLNSYGIS | VIYSDGRRTFYGDNVK | GQEAGTFDS | GP_Gibbs | 1.41 | 4/6
GFTIGEYGIS | VIYADGERTMYSNAVK | GNMAGTFSF | En_Gibbs | 1.75 | 3/6
GFTLNSYGIS | VIYSDGRRVFYSDSVK | GRAAGTFDK | Ctrl | 1.77 | 6/6
GFTLNSYGIS | VIYSDGMRTFYSDSVK | GWTAGTFDS | GP_HC | 1.87 | 3/6
GNNLNEYGIS | VIYADGQRTSYASDVK | GDIRGSFDS | En_Gibbs | 1.93 | 2/6
GFNVNSYGIS | VIYSDGRRTFYGDSVK | GRAAGTFDS | Ctrl | 1.94 | 5/6
GFSLNSYGIS | VIYSDGRRTFYGDSVK | GRAAGTFLS | Ctrl | 2.00 | 4/6
GFTLNSYGIS | VIYSDGRRTFYGDSVK | GRLAGTFDS | Ctrl | 2.16 | 2/6
GFTLNSYGIS | VIYSDGRRTFYNDSVK | GRPAGTFPS | Ctrl | 2.41 | 1/6
GFNLNSYGIS | VIYSDGRRTFYIDRVK | GNAAGTFDS | GP_Gen | 2.73 | 2/6
GFDLNEYGIS | VIYADGRRTAYADSVK | GKNAGTILV | En_HC | nd | 0/6
GFSLNEYGIS | VIYSDGRRTFYGDSVK | GKAAGTFDT | GPLM_Gen | nd | 0/6
GFNLNSYGIS | VIYSDGRRTFYGDSVK | GRAAATFDT | GP_Gibbs | nd | 0/6
GFWLDEYGIS | VIYADGKRVAYKNSVK | GQFTYNFDV | En_Gibbs | nd | 0/6
GFDLNEYGIS | VIYADGMRTAYADDVK | GNTAGTFDQ | En_Gen | nd | 0/6
GFTLMSYGIS | VIYSDGRRTFYGDSVK | GYEKISFDS | Ctrl | nd | 0/6
GMDLQEFGIS | VIYADGVREAYTDDFK | GQIAGTIDL | En_Gibbs | nd | 0/6
EFDLQEYGIS | VIYADGKREAYKDNFK | GNGAGVFDA | En_Gibbs | nd | 0/6
GFTLNSYGIS | VIYSDGRRTFYGDSFK | GRAASTFDS | Ctrl | nd | 0/6
GFDLNSYGIS | VIYSLGRRTFYFDSVK | GRAAGWFNS | Rand | nd | 0/6
GDGLLEYGIS | VIYADGMREAYAEDVK | GQTGGTFVL | En_Gibbs | nd | 0/6
GFKLDEYGIS | VIYADGHRVAYSQKVK | GDNVGNFFE | En_Gibbs | nd | 0/6
GFTLNEYGIS | VIYSDGRRTAYGDSVK | SRAAVTFDQ | Rand | nd | 0/6
GFTLNQYGIS | VIYSDGRRTFYGDSVK | GRAHGFFDL | Ctrl | nd | 0/6
GFTINQYGIS | VIYSDGRRTFYGDSVK | AREAGTWDS | Ctrl | nd | 0/6
GFSLDEYGVS | VIYADGLRTQYTNDVK | GLESFAFKM | En_Gibbs | nd | 0/6
GQDLDEYGVS | VIYADGQRTQYTNDVK | GLYSGAFII | En_Gibbs | nd | 0/6
GMDLSEYGIS | VIYADGMRTYASDSVK | GDQGGNLLY | En_Gibbs | nd | 0/6
GFDLQEYGIS | VIYADGVREAYTNSFK | GQIAGTIDL | En_Gibbs | nd | 0/6
GFNLDEYGIS | VIYADGMRRAYSDEVK | GGFSDILLM | En_Gibbs | nd | 0/6
GDGIDEYGIS | VIYADGHRKQYSENVK | GYNAGTLDE | En_Gibbs | nd | 0/6

Again, the first 4 entries without any signal:

{"CDR-H1": "GFDLNEYGIS", "CDR-H2": "VIYADGRRTAYADSVK", "CDR-H3": "GKNAGTILV", "group": "En_HC", "log10 Kd (nM), mean": "nd", "replicates with signal": "0/6"}
{"CDR-H1": "GFSLNEYGIS", "CDR-H2": "VIYSDGRRTFYGDSVK", "CDR-H3": "GKAAGTFDT", "group": "GPLM_Gen", "log10 Kd (nM), mean": "nd", "replicates with signal": "0/6"}
{"CDR-H1": "GFNLNSYGIS", "CDR-H2": "VIYSDGRRTFYGDSVK", "CDR-H3": "GRAAATFDT", "group": "GP_Gibbs", "log10 Kd (nM), mean": "nd", "replicates with signal": "0/6"}
{"CDR-H1": "GFWLDEYGIS", "CDR-H2": "VIYADGKRVAYKNSVK", "CDR-H3": "GQFTYNFDV", "group": "En_Gibbs", "log10 Kd (nM), mean": "nd", "replicates with signal": "0/6"}

Some sequences occur more than once in the pool; their replicates are pooled.
A sequence measured in both rounds can read differently, since the two assays cover different ranges.
Three control strains display no target. For all heavy chain designs, 1% of the pairings with them gave a signal, with a median of 2.08 and one signal in twenty below 0.84, so weak values seen in few replicates may be background.